Only some compounds are listed: those with a hit (about 16% of all), similar ones and a draw of the others.
TDP1 cell CPT – growth inhibition of DT40 Tdp1-/-;hTDP1 cells with camptothecin (screen for TDP1 inhibitors). chicken DT40 Tdp1-/-;hTDP1 cells + 20 nM CPT, ATP luminescence, 48 h. Potency, µM (top dose mostly 46.2 µM), without a hit: at the top dose activity change, negative = growth inhibition, most hits filed as inhibitors. 12% of 420,000 active. AID 686979; note: potency is the fitted concentration of half-maximal effect; % is set by controls: 0 for no effect and ±100 for the full control effect; nearly all actives have a fitted effect of over 55% in size
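Cell growth measured by CellTiter-Glo luminescence after a minimum 48 h, 37 C compound exposure with 20 nM CPT in Tdp1-knockout DT40 cells stably expressing hTDP1, seeded 400/well; qHTS titration format.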
uPA surface inh – blocks generation of uPA at the cell surface | cell surface uPA generation assay, qHTS | Potency, µM (series often up to 38.3 µM), for the others: at the top dose activity change, negative = inhibition, usual class: inhibitors | 0.31% of 330,000 active; active = well fitted inhibition curve with a large enough effect; inconclusive = small, poorly fitted or top-dose-only effect; inactive = no such curve, though single readings can be large or run the other way; tested in mouse RAW 264.7 cells; note: potency is the fitted concentration of half-maximal effect; % is set by controls: 0 for no effect and ±100 for the full control effect; nearly all actives have a fitted effect of over 55% in size
DT40 TDP1 no CPT – qHTS for Inhibitors of human tyrosyl-DNA phosphodiesterase 1 (TDP1): qHTS in cells in absence of CPT | DT40 Tdp1-/- hTDP1 cells, no CPT, ATP luminescence, 48 h | Potency, µM (titrated, usually from 46.2 µM), for inactives: at the highest dose activity change, negative = growth inhibition, most hits filed as inhibitors | 15% of 420,000 active | AID 686978, 2013; note: potency is the fitted concentration of half-maximal effect; % is set by controls: 0 for no effect and ±100 for the full control effect; nearly all actives have a fitted effect of over 55% in size
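Growth kinetics read by CellTiter-Glo luminescence after ≥48 hr at 37 °C. Cells: DT40 Tdp1-/- stably carrying human TDP1, 400 per well, compound exposure in the absence of CPT (DMSO vehicle).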
miR-21 reporter – raises the signal of a miR-21 reporter | HeLa miR-21 FLuc reporter, luciferase, 48 h | Potency, µM (doses to about 38.3 µM), for the others: at the highest dose reporter change, positive = more light | 340,000 tested, under 10 active | AID 2288; active = well fitted rising curve with a large enough effect; inconclusive = small, poorly fitted or top-dose-only effect; inactive = no such curve, though single readings can be large or run the other way;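 also: % of control where 0% means no effect; miR-21 action dims this reporter so a rising signal means less miR-21 action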
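HeLa cells stably expressing CMV-driven firefly luciferase with a downstream miR-21 binding sequence, endogenously expressing miR-21, were treated with titrations (up to about 40uM final) for 48 hours at 37 degree Celsius. Luciferase luminescence was read after lysis.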
TDP1 inh – blocks human tyrosyl-DNA phosphodiesterase 1. AID 485290. recombinant TDP1, AlphaScreen DNA substrate cleavage. Q9NUW8. Potency, µM (highest dose often 130 µM), inactives show top-dose activity change, negative = inhibition, hits mostly inhibitors. 0.28% of 350,000 active; note: potency is the fitted concentration of half-maximal effect; % is set by controls: 0 for no effect and ±100 for the full control effect; nearly all actives have a fitted effect of over 40% in size
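Enzyme-compound mixtures sat 15 min at room temperature, followed by a 5 min reaction with 15 nM final substrate and 10 min with AlphaScreen beads. Recombinant human Tdp1 was used at 1 nM final.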
* marks the source's active call; other numbers are inactive results; ? = inconclusive; / = no result given; [ ] = dose if it differs, or a comment. Unless noted, calls come from the whole dose curve; as a rule, active = well fitted curve in the direction sought with a large enough effect; inconclusive = small, poorly fitted or top-dose-only effect, or another doubt; inactive = no such curve, though single readings can be large; an effect the other way counts as inactive or inconclusive.

canonical_smiles | TDP1 cell CPT | uPA surface inh | DT40 TDP1 no CPT | miR-21 reporter | TDP1 inh
CC(C)CC1NC(=O)C(CCCN)NC(=O)C(C(C)C)NC(=O)C2CCCN2C(=O)C(Cc2ccccc2)NC(=O)C(CC(C)C)NC(=O)C(CCCN)NC(=O)C(C(C)C)NC(=O)C2CCCN2C(=O)C(Cc2ccccc2)NC1=O (centres undefined) | / | / | / | / | 7.7%
N#C/C(=C\c1ccc(-c2ccccc2[N+](=O)[O-])o1)C(=O)Nc1nc(-c2cccs2)cs1 | ? | 5.0% | 29.1µM* | -4.9% | 2.8%
Cc1nnc(SCC(=O)Nc2cc(-c3cc(C)c(C)cc3C)nn2-c2ccccc2)s1 | 20.6µM* | -20.2% | 11.6µM* | -2.8% | 3.2%
CCCc1ccc(-c2cc(NC(=O)CSc3nnc(N)s3)n(-c3ccccc3)n2)cc1 | 23.1µM* | -10.0% | 20.6µM* | -23.8% | 2.7%
Cc1nnc(SCC(=O)Nc2cc(C(C)(C)C)nn2-c2ccccc2)s1 | -10.2% | 0.8% | -27.9% | -3.8% | 5.5%
COc1ccccc1CNc1ccc2nnc(CCNC(=O)c3ccc(C)cc3)n2n1 | -24.6% | -3.7% | ? | -27.9% | 5.5%
CCOC(=O)c1c(C)n(CC(O)CN(C)C)c2cc(Br)c(OC)cc12 (centres undefined) | 21.9% | -2.4% | ? | -19.9% | -7.4%
CCOC(=O)C(C(=O)OCC)C(Nc1ccc(Br)cc1)c1ccccc1 (centres undefined) | 29.1µM* | / | ? | 27.6% | 3.9%
CCOC(=O)C(c1ccccc1)C(Nc1ccc(F)cc1)c1ccccn1 (centres undefined) | ? | -7.6% | 18.4µM* | 11.6% | -3.8%
CCOC(=O)c1ccc(N(CC(=O)NCC2CCCO2)C(=O)CCC(=O)Nc2cc(C)on2)cc1 (centres undefined) | 10.7% | 0.8% | 12.5% | -7.9% | 9.1%
O=c1c2ccccc2nc(-c2ccccc2)n1Cc1ccc(Cl)cc1 | ? | 1.4% | ? | -16.3% | -0.5%
CCOCCn1c(-c2ccc(OC)cc2)nc2ccccc21 | ? | -13.2% | ? | -30.4% | 2.6%
COc1cc(Cn2c(-c3ccc(O)c(OC)c3)nc3ccccc32)ccc1O | 0.1% | 2.0% | ? | 9.4% | 3.1%
CCCCCn1c(-c2ccc(OC)c(OC)c2)nc2ccccc21 | ? | / | 7.31µM* | ? | 2.5%
COc1ccc(-c2nc3ccccc3c(=O)n2CCOc2ccccc2C)cc1 | ? | 8.6% | 18.4µM* | -1.2% | -5.6%
O=c1c2ccccc2nc(-c2ccccc2)n1Cc1ccccc1 | -19.8% | -0.8% | 25.9µM* | -68.9% | -5.3%

Compounds from the list above with two or more sulfur atoms (four):
canonical_smiles | TDP1 cell CPT | uPA surface inh | DT40 TDP1 no CPT | miR-21 reporter | TDP1 inh
N#C/C(=C\c1ccc(-c2ccccc2[N+](=O)[O-])o1)C(=O)Nc1nc(-c2cccs2)cs1 | ? | 5.0% | 29.1µM* | -4.9% | 2.8%
Cc1nnc(SCC(=O)Nc2cc(-c3cc(C)c(C)cc3C)nn2-c2ccccc2)s1 | 20.6µM* | -20.2% | 11.6µM* | -2.8% | 3.2%
CCCc1ccc(-c2cc(NC(=O)CSc3nnc(N)s3)n(-c3ccccc3)n2)cc1 | 23.1µM* | -10.0% | 20.6µM* | -23.8% | 2.7%
Cc1nnc(SCC(=O)Nc2cc(C(C)(C)C)nn2-c2ccccc2)s1 | -10.2% | 0.8% | -27.9% | -3.8% | 5.5%

New compounds follow.
canonical_smiles | TDP1 cell CPT | uPA surface inh | DT40 TDP1 no CPT | miR-21 reporter | TDP1 inh
COc1ccc(-c2nc3ccccc3n2Cc2ccccc2)cc1 | 18.4µM* | 4.5% | 8.2µM* | -0.8% | -2.0%
CC(C)c1nnc(SCC(=O)NCc2ccc3c(c2)OCO3)n1C | -10.4% | 0.6% | -5.3% | -4.8% | 0.0%
C=CCn1c(-c2ccc(N)cc2)nc2ccccc21 | ? | -6.5% | -22.2% | -67.1% | 2.0%
COc1ccc(-c2n(Cc3ccccc3)c3ccccc3[n+]2Cc2ccccc2)cc1 | 0.461µM* | ? | 0.259µM* | ? | 5.1%
C=CCn1c(-c2ccc(OC)cc2)nc2ccccc21 | 18.4µM* | -6.6% | 9.2µM* | -34.2% | 1.1%
COc1ccc(/C(C)=N/NC(=O)CN(c2ccc(OC)cc2)S(=O)(=O)c2ccccc2)cc1 | -2.8% | -4.7% | -12.0% | 3.1% | /
Cc1cc(C(=O)N(NC(=O)C(C)C)c2ccccc2)cs1 | -14.1% | -2.3% | -11.4% | -0.4% | 1.3%
Cc1ccc(OCc2ccc(C(=O)N3CCCC3)o2)cc1C | ? | -0.3% | ? | -40.1% | -0.2%
c1ccc(NC2=NCCN2CC2CCC2)cc1 | 3.9% | 4.8% | -11.9% | / | -4.3%
c1ccc(NC2=NCCN2CCCC2CCCCC2)cc1 | 16.4µM* | ? | 23.1µM* | / | -6.2%
c1ccc(CCCCN2CCN=C2Nc2ccccc2)cc1 | ? | -19.8% | 16.4µM* | / | -3.8%
O=C(NC1CCCC1)C(c1cccnc1)N(CCc1ccccc1)C(=O)c1ccco1 (centres undefined) | -4.3% | -2.8% | -8.6% | 4.2% | -2.4%
CCN(CC)S(=O)(=O)c1cccc(NC(=O)COC(=O)C2=COCCO2)c1 | -15.8% | 2.1% | -8.3% | / | 0.2%
COc1ccc(CCNC(=O)CNCC(c2ccccc2)N(C)C)cc1OC (centres undefined) | 5.4% | 13.0% | -10.8% | -1.2% | /
N#C/C(=C\c1ccc(N2CCCCC2)o1)C(=O)Nc1cccc(Br)c1 | ? | 1.5% | 7.31µM* | -57.1% | -2.7%
Cc1ccc(/C=C(\C#N)C(=O)Nc2cccc(Br)c2)o1 | 0.0% | / | -11.1% | -56.8% | 3.8%[2.28 µM]
COc1ccc(S(=O)(=O)N2CCCCCC2)cc1C(=O)OC(C)C(N)=O (centres undefined) | -6.8% | -2.1% | ? | -3.6% | 5.0%
Cc1nnc(NC(=O)c2ccc(S(=O)(=O)N(C)c3ccccc3)cc2)s1 | -21.7% | -6.6% | -24.1% | / | 0.5%
Cc1nc2cc(NC(=O)c3ccc(S(=O)(=O)N(C)c4ccccc4)cc3)ccc2o1 | ? | 1.5% | 16.4µM* | ? | 8.4%
CN(c1ccccc1)S(=O)(=O)c1ccc(NC(=O)c2ccc(-c3ccccc3)cc2)cc1 | 20.6µM* | -8.8% | ? | 22.0% | 5.2%
CN(c1ccccc1)S(=O)(=O)c1ccc(C(=O)Nc2nnc(-c3ccc(F)cc3)o2)cc1 | 9.2µM* | -1.8% | 6.51µM* | -5.1% | 8.8%
Cc1csc(NC(=O)c2ccc(S(=O)(=O)N(C)c3ccccc3)cc2)n1 | 11.6µM* | 1.4% | 13µM* | 4.6% | 4.7%
COc1cc(NC(=O)c2ccc(S(=O)(=O)N(C)c3ccccc3)cc2)cc(OC)c1 | ? | -18.4% | 16.4µM* | / | 1.3%
Cn1c(=O)c2c(nc(CN3CCN(c4ccccc4F)CC3)n2CCCc2ccccc2)n(C)c1=O | 16.4µM* | 1.8% | 20.6µM* | / | /
